Reference: ChEMBL document CHEMBL1154606, “Identification of a critical residue in the transmembrane domain 2 of tachykinin neurokinin 3 receptor affecting the dissociation kinetics and antagonism mode of osanetant (SR 142801) and piperidine-based structures” (J Med Chem, 2009)

The chains behind the UniProt entries cited, without tags or fusion partners.
UniProt P29371, whole entry: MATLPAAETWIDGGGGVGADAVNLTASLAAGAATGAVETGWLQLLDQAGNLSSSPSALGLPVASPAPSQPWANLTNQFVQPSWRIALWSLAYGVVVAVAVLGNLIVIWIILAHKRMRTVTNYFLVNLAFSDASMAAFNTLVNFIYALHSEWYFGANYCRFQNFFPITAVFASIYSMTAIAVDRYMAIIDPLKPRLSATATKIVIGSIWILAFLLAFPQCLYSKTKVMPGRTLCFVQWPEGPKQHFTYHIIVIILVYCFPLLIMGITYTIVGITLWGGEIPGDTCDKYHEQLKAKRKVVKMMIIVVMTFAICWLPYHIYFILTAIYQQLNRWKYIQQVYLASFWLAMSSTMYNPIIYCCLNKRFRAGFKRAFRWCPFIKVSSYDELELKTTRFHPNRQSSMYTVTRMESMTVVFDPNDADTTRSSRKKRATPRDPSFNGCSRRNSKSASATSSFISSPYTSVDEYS
UniProt P30098, whole entry, looked up: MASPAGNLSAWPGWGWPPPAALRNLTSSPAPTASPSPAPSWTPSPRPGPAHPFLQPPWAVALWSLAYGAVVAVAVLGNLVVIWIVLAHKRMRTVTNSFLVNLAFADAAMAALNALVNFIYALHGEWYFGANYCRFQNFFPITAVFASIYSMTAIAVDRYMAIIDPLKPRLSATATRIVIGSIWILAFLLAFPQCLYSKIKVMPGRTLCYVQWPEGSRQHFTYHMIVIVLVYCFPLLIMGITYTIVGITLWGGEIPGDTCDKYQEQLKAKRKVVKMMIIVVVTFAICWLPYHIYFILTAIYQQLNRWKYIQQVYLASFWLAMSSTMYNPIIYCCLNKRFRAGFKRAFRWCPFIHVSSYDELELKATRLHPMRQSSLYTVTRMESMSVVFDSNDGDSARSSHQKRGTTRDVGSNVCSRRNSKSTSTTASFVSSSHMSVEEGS

Assays:
[1] = biological target: T1, Neuromedin-K receptor (Homo sapiens, UniProt P29371); test: Antagonist activity at wild type human NK3 receptor expressed in HEK293 cells assessed as inhibition of [MePhe7]NKB-induced accumulation of [3H]inositol phosphate; assay type: functional, cell-based; conditions: read-out: pA2 (converted)
How it was run: (§1)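 HEK293 cells transiently transfected with NK3 receptor, labeled with myo-[³H]-inositol and assayed 48 h post-transfection in HBSS/HEPES pH 7.4 with 8 mM LiCl. Fixed antagonist concentrations were preincubated 20 min at 37 °C, then [MePhe⁷]NKB (0.1 nM–10 μM) was added for 45 min at 37 °C. [³H]IP was captured on yttrium silicate beads. Agonist EC50 shifts gave dose ratios for Schild regression. Six curves from three transfections.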

[2] = biological target: T2, Neuromedin-K receptor (Cavia porcellus, UniProt P30098); test: Antagonist activity at […] guinea pig NK3 receptor A1142.58T mutant expressed in HEK293 cells assessed as inhibition of [MePhe7]NKB-induced accumulation of [3H]inositol phosphate; assay type: functional, cell-based; how it was run: as §1
[3] = biological target: T1, Neuromedin-K receptor; test: Apparent binding affinity to human NK3 receptor expressed in HEK293 cells; assay type: cell-based
[4] = biological target: T1, Neuromedin-K receptor; test: Equilibrium binding affinity to human NK3 receptor expressed in HEK293 cells; assay type: cell-based
[5] = biological target: T2, Neuromedin-K receptor; test: Apparent binding affinity to guinea pig NK3 receptor expressed in HEK293 cells; assay type: cell-based
[6] = biological target: T2, Neuromedin-K receptor; test: Equilibrium binding affinity to guinea pig NK3 receptor expressed in HEK293 cells; assay type: cell-based

## CC(=O)N(C)C1(c2ccccc2)CCN(CCC[C@]2(c3ccc(Cl)c(Cl)c3)CCCN(C(=O)c3ccccc3)C2)CC1 [OSANETANT]
[1]
  Kb: 18.6 nM
[2]
  pA2: 8.5
[3]
  Kd: 0.22 nM
[4]
  Kd: 0.2 nM
[5]
  Kd: 0.08 nM
[6]
  Kd: 0.15 nM
